The test deals with T1, Transcription intermediary factor 1-alpha (Homo sapiens) (UniProt O15164).
T1 sequence (whole entry): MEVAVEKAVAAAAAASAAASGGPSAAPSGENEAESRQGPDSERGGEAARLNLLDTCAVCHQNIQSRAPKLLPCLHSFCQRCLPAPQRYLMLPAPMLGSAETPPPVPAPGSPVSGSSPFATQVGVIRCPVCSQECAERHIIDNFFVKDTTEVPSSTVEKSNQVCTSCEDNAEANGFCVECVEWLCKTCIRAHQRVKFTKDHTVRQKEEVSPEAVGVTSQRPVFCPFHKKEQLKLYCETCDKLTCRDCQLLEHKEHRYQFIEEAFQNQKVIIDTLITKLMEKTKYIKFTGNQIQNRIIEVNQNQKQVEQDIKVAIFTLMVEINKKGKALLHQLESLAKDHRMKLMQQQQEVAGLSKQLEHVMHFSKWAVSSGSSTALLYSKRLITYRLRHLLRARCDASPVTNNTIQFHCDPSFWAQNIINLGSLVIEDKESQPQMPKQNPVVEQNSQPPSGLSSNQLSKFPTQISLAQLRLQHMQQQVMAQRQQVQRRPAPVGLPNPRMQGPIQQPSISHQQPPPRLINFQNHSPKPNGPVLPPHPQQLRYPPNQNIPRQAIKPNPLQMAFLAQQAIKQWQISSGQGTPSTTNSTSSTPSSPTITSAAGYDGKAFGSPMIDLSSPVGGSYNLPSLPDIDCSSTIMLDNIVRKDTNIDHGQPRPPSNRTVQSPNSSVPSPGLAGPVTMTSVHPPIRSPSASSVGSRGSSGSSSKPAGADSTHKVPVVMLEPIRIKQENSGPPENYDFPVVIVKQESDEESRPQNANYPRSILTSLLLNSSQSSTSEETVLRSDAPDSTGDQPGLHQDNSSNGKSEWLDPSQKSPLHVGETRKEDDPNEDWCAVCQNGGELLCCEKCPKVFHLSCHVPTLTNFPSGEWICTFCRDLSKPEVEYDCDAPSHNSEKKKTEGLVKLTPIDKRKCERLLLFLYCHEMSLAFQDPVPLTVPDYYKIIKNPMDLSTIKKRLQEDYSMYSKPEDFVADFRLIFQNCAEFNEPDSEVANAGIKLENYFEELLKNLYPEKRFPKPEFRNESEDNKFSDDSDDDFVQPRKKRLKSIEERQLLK
To be noted: Compound concentration 20.0 uM.

Most of the lowest values are listed elsewhere, so they are rarer here than in the full data.

A word on the ΔTm: it is the shift of the melting midpoint relative to a reference. Consider `C[C@]12CC[C@@H]3c4ccc(O)cc4C[C@@H](CCCCCCCCC[S+]([O-])CCCC(F)(F)C(F)(F)F)[C@H]3[C@@H]1CC[C@@H]2O` (stereo partly specified), for which the ΔTm was 1.64 °C.
